Consider 17 compounds from PubChem BioAssay (EPA / NIEHS).

Sequences of proteins named here, by UniProt entry; tags and fusion partners are left off. A change or cut given only in a name is not applied to a line headed by its entry.
UniProt Q9Y261: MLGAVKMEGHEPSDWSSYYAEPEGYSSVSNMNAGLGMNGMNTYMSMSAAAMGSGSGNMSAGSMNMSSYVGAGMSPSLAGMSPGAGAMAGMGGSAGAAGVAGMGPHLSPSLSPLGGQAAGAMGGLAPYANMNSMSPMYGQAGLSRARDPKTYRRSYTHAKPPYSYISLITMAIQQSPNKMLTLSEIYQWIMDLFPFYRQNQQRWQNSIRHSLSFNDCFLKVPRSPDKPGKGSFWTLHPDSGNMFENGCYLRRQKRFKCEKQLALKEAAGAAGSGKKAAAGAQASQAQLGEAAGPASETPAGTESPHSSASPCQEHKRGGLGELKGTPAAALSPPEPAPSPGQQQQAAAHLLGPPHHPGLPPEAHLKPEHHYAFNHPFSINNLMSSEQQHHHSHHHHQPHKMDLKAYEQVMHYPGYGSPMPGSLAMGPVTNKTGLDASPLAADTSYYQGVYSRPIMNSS

Each structure is given as a SMILES string. The entries are a selection whose mix differs from that of the whole data set. Calls of active or inactive are those of the source. How the source made its calls: active means hit-call score of the fitted dose curve at least 0.9, where 1 is the maximum; inactive means score below 0.9.

In the test the target is Hepatocyte nuclear factor 3-beta (Homo sapiens) (UniProt Q9Y261). Nature of the test: ATG_FoxA2_CIS: Attagene CIS-FACTORIAL HepG2 Assay for human Forkhead box A2 (FOXA2) (AID 2282942). The note with it: HepG2 cis-reporter transcription factor activity, 24 h; actives raise or lower the signal. Here is the method:
ATG_CIS is a cell-based, multiplexed-readout assay that uses HepG2, a human liver cell line, with measurements taken at 24 hours after chemical dosing in a 24-well plate.ATG_FoxA2_CIS is one of 52 assay component(s) measured or calculated from the ATG_CIS assay. It is designed to make measurements of mRNA induction, a form of inducible reporter, as detected with fluorescence intensity signals by Reverse transcription polymerase chain reaction (RT-PCR) and Capillary electrophoresis technology.Data from the assay component ATG_FoxA2_CIS was analyzed into 1 assay endpoint. This assay endpoint, ATG_FoxA2_CIS, was analyzed with bidirectional fitting relative to DMSO as the negative control and baseline of activity. Using a type of inducible reporter, measures of mRNA for gain or loss-of-signal activity can be used to understand the reporter gene at the transcription factor-level as they relate to the gene FOXA2. Furthermore, this assay endpoint can be referred to as a primary readout, because this assay has produced multiple assay endpoints where this one serves a reporter gene function. To generalize the intended target to other relatable targets, this assay endpoint is annotated to the dna binding intended target family, where the subfamily is forkhead box protein.
Human liver HepG2 cells are transiently transfected with multiple reporter transcription units (MRTUs) in 6-well plates using FuGene 6 reagent (Roche; 3 ml FuGene/1 mg DNA). The MRTU constructs are regulated by a cis-regulating element (promoter). […] A major difference between the CIS and TRANS system is that in CIS activities of endogenous TFs are measured, whereas the TRANS assay evaluates changes in activities of exogenous, chimeric NR-Gal4 proteins. […] At the end of 24 hour incubation, total RNA was isolated using TriZol reagent (Invitrogen). The isolated RNA is then reverse-transcribed using oligo(dT) primer and Mo-MLV reverse transcriptase (Invitrogen) with DNAse I (Ambion) treatment for 30 min. The one-tenth of the produced cDNA was amplified by PCR using Taq DNA polymerase (Invitrogen) and two reporter sequence-specific primers. The PCR products were fluorescently labeled by primer extension with 6-arboxyfluorescein (6-FAM) 5'-labeled reporter sequence-specific primer (2 min at 95 C, 20 s at 68 C and 10 min at 72 C) and these products were digested with 5U of HpaI (New England Biolabs) for 2h at 37 C. The fragments were purified using Qiaquick PCR columns (Qiagen), analyzed on an ABI 3130xL genetic analyzer (Applied Biosystems) with peak positions identified by using a set of X-rhodamine (ROX)-labeled MapMarker1000 molecular weight standards (BioVentures). The raw capillary electrophoresis data was processed using Attagraph software (Attagene).
On to `O=C(Cl)OCCOC(=O)Cl`, for which the compound was classed as inactive.
As for `N#CSc1ccc([N+](=O)[O-])cc1[N+](=O)[O-]`, the outcome was inactive.
Same read-out and setting: then `O=P(Cl)(Oc1ccccc1)Oc1ccccc1`, with “inactive”.
On the same count and under the same terms, then `CC(C)CCCCCCCOP(OCCCCCCCC(C)C)Oc1ccccc1`, with “inactive”; and `O=[P+](Oc1ccccc1)Oc1ccccc1`, with “inactive”; and `O=C1C2CC=CCC2C(=O)N1SC(Cl)(Cl)C(Cl)Cl` (configuration not stated), with “inactive”.
The same measure, in the same setting: then `CC(C)OP(=S)(OC(C)C)SCCNS(=O)(=O)c1ccccc1`, with “inactive”; and `CCCCOP(OCCCC)OCCCC`, with “inactive”.
Turning to `O=[As]c1ccccc1` (configuration not stated), the AC50 is active: 650 nM.
On to `CN(C(=O)Cc1cccc2occc12)[C@H]1CC[C@@]2(CCCO2)C[C@@H]1N1CCCC1`, for which the compound was called inactive.
Still for that read-out and setting: next, `O=[N+]([O-])c1ccc([N+](=O)[O-])cc1`: “inactive”.
Same read-out and setting: next, `Cc1cc([N+](=O)[O-])cc([N+](=O)[O-])c1O`: “inactive”.
Same read-out and setting: then `O=C(Cl)Oc1ccccc1`, with “inactive”; and `CCCCC(CC)CO[P+](=O)OCC(CC)CCCC` (configuration not stated), with “inactive”.
With `ClP(Cl)c1ccccc1`, the compound was called inactive.
On the same count and under the same terms, then `O=[p+]1oc2ccccc2c2ccccc21` (configuration not stated), with “inactive”; and `CCCCO[P+](=O)OCCCC`, with “inactive”.

One may read the AC50 as the concentration giving half of the maximal activity seen.
